Reference: patent publication EP1067939B1, “USE OF STEROIDAL ALKALOID DERIVATIVES AS INHIBITORS OF HEDGEHOG PROTEIN SIGNALING PATHWAYS” (The Johns Hopkins University, priority 1998, dated 1999)

Test system: Ptc -/- MEFs
Assay: β-galactosidase activity in ptc-lacZ mouse embryonic fibroblasts
Assay type: cell-based

In the case of `CC1=C2C[C@H]3[C@@H](CC=C4C[C@@H](O)CC[C@@]43C)[C@@H]2CC[C@]12O[C@@H]1C[C@H](C)CN[C@H]1[C@H]2C` [Cyclopamine, cyclopamine], the β-galactosidase activity (MEFs homozygous for ptc-lacZ (cell line 23-1), 3 days, normalized to whole protein content) is reported as “decreased” and the “reduction of β-galactosidase activity” value (exposure shorter than the average cell cycle, Ptc -/- MEFs 23-4, 16 hours (Figure 14)) is reported as “can be obtained”.
